Laboratory results reported in patent US5623049A, “Nucleic acid-binding oligomers possessing N-branching for therapy and diagnostics” (Bayer Aktiengesellschaft, priority 1993, dated 1997).

The chains behind the UniProt entries cited, without tags or fusion partners. Residues count along the entry.
UniProt P0C1U8, 69-336: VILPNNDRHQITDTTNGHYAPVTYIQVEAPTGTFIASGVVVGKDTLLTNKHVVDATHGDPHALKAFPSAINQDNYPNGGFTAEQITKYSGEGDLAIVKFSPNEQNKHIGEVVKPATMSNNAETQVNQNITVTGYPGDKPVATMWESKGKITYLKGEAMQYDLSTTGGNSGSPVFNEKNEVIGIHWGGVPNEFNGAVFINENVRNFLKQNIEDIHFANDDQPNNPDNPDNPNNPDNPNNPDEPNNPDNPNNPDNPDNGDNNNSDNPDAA

Target: V8 Protease (GLU--C) (Staphylococcus aureus, UniProt P0C1U8)
Settings: 75 μg of oligomer, 5 μl of protease, 37° C., 3 hours; PAGE, UV shadowing, silver staining

| Substance | Stability towards V8 Protease (GLU--C) |
| --- | --- |
| H--(III T)8 --Ala--OH [H-(IIIT)8 -Ala--OH] | + |
| H--(III T)12 --Lys--OH [H-(IIIT)12 -Lys--OH] | + |
